According to US20140120167A1, “MULTIFUNCTIONAL CHEMO- AND MECHANICAL THERAPEUTICS” (WILLIAM MARSH RICE UNIVERSITY, priority 2012, published 2014):
Entries after “also recorded” stand apart in the source; their conditions may differ.

Columns and labels:
[1] = test system: tumor and adjacent normal tissue; assay: GNP clustering in vivo by TEM 24 h after systemic injection; design: species or system mouse; details: 0.8 μg g^−1 systemic
Experimental: GNP targeting in vivo. The evaluation of GNP clustering in vivo was done using TEM microscopy (Hitachi H-7500 Electron Microscope) (FIGS. 16a-c). Twenty-four hours after the systemic injection of GNP-C225 conjugates (0.8 μg g^−1), the tumor and adjusted normal tissues were extracted and prepared using the standard technique for TEM imaging.

[2] = test system: primary HNSCC xenograft tumors (Luciferase-encoded HN31 cells); assay: Primary xenograft HNSCC tumor model, single treatment; type: in vivo, mice; details: GNP-C225 0.8 μg g^−1 and laser pulses only
Experimental: Primary xenograft HNSCC tumors were induced s.c. by injecting 0.5 min of Luciferase-encoded HN31 cells and was grown to 3-5 mm. Tumors were quantified weekly via their volume (measured with a caliper) and Luciferase-induced bioluminescence (measured via small animal imaging system IVIS Lumina). One group received no treatment (6 animals), other three groups received the following single primary treatments: Quadrapeutic group (11 animals) received GNP-C225s (0.8 μg g^−1) and Doxil-C225 (1 mg kg^−1) via intra-venous concomitant injection. […] Generation of PNBs in tumors was monitored with ultrasound detector during the laser scan (FIG. 6a). […]
Tumor width and length were measured with digital calipers, and the tumor volume was calculated in mm^3 as: Volume=(width)^2×length/2 (See Rofstad, E. K. & Brustad, T. Tumour growth delay following single dose irradiation of human melanoma xenografts. Correlations with tumour growth parameters, vascular structure and cellular radiosensitivity. Br. J. Cancer. 51, 201-210 (1985)). Therapeutic efficacy was calculated as a ratio V1/V2, where V1—averaged tumor volume for animals in untreated group, V2—averaged tumor volume for animals in treated group. Animals were monitored for three weeks after the treatment and were euthanized on reaching a moribund condition.

[3] = preliminary studies

## GNP-C225: 60 nm solid gold spheres (colloidal gold) conjugated with anti-EGFR antibody C225 (Erbitux)
[1]
  GNP clusters in tumor versus normal adjacent tissue (TEM): big GNP clusters were observed only in the tumor; also recorded: large GNP clusters only in tumors
[2]
  tumor growth, PNB group: did not prevent the tumor growth
[3]
  toxicity in vitro and in vivo: little or no toxicity
